Values of other authors, collected in paper PMC3338918.

Protein sequences, listed by entry. Tags and fused reporters are not part of them.
UniProt P15692, whole entry: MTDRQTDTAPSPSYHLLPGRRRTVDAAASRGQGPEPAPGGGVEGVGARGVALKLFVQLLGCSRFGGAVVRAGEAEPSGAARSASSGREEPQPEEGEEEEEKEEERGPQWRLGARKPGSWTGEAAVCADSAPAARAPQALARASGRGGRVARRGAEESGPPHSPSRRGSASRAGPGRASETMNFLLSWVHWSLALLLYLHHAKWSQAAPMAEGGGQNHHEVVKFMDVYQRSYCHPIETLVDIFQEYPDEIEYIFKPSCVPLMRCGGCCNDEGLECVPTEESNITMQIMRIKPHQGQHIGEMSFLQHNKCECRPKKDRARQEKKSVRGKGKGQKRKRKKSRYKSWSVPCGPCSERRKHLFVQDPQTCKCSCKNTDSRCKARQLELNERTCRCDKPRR

Biological target: VEGF-A (Homo sapiens) (UniProt P15692)
Assay: SPR
Conditions: cited from earlier work

Substance: ranibizumab Fab
- Kd: < 0.14 nM
